The values that follow are results of earlier work, collected in PMC9504748, “Discovery of Flavonoids as Novel Inhibitors of ATP Citrate Lyase: Structure–Activity Relationship and Inhibition Profiles” (International Journal of Molecular Sciences, 2022).

Broadly, the IC50 is the midpoint of a concentration-inhibition curve.

The data set deals with T1, ACLY (Homo sapiens, UniProt P53396).
T1 construct: His; made in house; host or cells: Escherichia coli BL21(DE3)
T1 sequence (P53396 1-1101): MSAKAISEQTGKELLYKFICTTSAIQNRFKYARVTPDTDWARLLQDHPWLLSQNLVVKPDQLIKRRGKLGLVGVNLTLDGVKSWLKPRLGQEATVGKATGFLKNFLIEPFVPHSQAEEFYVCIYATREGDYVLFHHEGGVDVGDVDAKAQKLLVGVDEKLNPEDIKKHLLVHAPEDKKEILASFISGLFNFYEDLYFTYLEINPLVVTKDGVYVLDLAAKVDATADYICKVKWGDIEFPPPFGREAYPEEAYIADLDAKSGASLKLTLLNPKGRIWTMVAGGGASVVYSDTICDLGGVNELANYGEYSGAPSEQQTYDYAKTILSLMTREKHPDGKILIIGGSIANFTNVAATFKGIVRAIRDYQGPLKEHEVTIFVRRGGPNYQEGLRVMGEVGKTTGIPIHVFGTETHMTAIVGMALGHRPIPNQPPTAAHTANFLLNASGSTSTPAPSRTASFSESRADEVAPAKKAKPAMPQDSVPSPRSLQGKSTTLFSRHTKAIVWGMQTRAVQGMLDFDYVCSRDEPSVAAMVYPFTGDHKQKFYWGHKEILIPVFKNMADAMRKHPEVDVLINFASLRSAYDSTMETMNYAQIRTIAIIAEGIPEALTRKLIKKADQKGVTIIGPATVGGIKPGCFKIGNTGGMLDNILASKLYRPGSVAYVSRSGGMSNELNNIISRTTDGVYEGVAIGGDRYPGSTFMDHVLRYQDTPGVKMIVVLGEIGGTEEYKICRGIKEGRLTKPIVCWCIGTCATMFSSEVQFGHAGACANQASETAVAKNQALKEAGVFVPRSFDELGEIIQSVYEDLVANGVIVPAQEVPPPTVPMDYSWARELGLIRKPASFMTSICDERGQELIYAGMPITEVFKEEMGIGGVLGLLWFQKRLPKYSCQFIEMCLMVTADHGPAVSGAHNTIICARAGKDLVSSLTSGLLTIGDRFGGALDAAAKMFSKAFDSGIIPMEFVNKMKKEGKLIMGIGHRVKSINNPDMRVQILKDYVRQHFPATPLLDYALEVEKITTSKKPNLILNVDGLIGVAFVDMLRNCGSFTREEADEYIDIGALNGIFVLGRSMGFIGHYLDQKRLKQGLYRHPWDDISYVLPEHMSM
Conditions: natural ACLY inhibitors, discussion; no reference given; cited from earlier work.

With purporone, the IC50 is 8 µM.
